# Source: PubChem BioAssay (several laboratories)
# A selection: hits, their analogues and other compounds. The true share with any hit is near 2.1%.
# Yeast UUG start-1: yeast start codon fidelity modulation; AID 602363; activity score, % at 18.7 µM; S. cerevisiae UUG-firefly luciferase reporter, luminescence/redox ratio; 0.13% of 350,000 active;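 active means replicate mean at a twofold rise or more, about +100% in these data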;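 further: firefly luciferase made from a UUG start codon reports start codon fidelity; reporter light over untreated wells divided by growth signal over untreated wells; some hits fall short of that in this replicate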
# SMARCA2 activ: increases SMARCA2 function in MMTV reporter cells. MG213 cells, MMTV-luciferase reporter, dexamethasone, overnight. actives 1% (n = 370,000). activation, % at 9.1 µM; in the data active means activation above about 7.8%;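 further: 0% = vehicle wells and 100% = reference activator wells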
# ERp5 inh: blocks human ERp5 reductase activity on insulin; ERp5 insulin aggregation, absorbance 650 nm, 90 min; actives 0.05% (n = 350,000); inhibition, % at 9.99 µM; AID 651711;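 active means mean replicate inhibition above about 25%, with every replicate also reaching it, limit read from the data, passing the limit was not always enough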
# Rev-erbA mod: modulates human Rev-erb alpha binding to DNA; Rev-erbα–FITC-DNA binding, fluorescence polarization, 90 min; activity, % at 10 µM; actives 0.79% (n = 370,000); AID 1259318;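 active means activity above about 14%, limit read from the data; passing the limit was not always enough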;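 further: 0% = DMSO wells with 35 nM protein and 100% = DMSO wells with 750 nM protein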
# INS-1E GSIS act: GLuc luminescence reporter in INS-1E cells, primary screen for activators of glucose-dependent secretion of insulin; INS-1E GLuc reporter insulin secretion, 2-3 h; activation, % at 16.6 µM; actives 0.61% (n = 370,000); AID 743287;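 active means lowest replicate activation of at least 40%, so every replicate reaches that level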;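 further: 0% = median of neutral control wells and 100% = median of IBMX positive control wells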
# PDI inh: blocks human protein disulfide isomerase activity | PDI insulin aggregation turbidity, A650, 90 min | P07237 | actives 0.052% (n = 350,000) | inhibition, % at 10 µM;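 active means mean inhibition across replicates of 30% or more, whatever share of single replicates reach that level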
# Yeast UUG start-2: yeast start codon fidelity modulation | shares compounds with Yeast UUG start-1 | S. cerevisiae UUG-start firefly luciferase, luminescence, 4 h; 100% means double the DMSO signal | activation, % at 38 µM | 540 tested, under 10 active | AID 652061;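 active means signal increase whose fitted curve reaches an absolute level of 40 at a concentration under 10 µM; inactive means activity opposite to the expected increase, or the rest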
# * = called active by the depositor; i = inactive; / = no result.
No. | mol | Yeast UUG start-1 | SMARCA2 activ | ERp5 inh | Rev-erbA mod | INS-1E GSIS act | PDI inh | Yeast UUG start-2
1 | O=C(C[C@@H]1CC[C@@H](NC(=O)c2ccncc2)[C@H](CO)O1)Nc1ccc(-c2ccccc2)cc1 | / | / | -4 | / | 10 | / | /
2 | CCOc1ccc(C(=O)NCC(C)NC(=O)c2ccc(OCC)cc2)cc1 (stereo not drawn) | 109* | -3 | 3 | -4 | 7 | 2 | 10
3 | CO[C@@H]1CN(C)C(=O)c2ccc(NC(=O)Nc3c(C)noc3C)cc2OC[C@H](C)N(C)C[C@@H]1C | 69* | / | 5 | / | 21 | / | i
4 | CO[C@H]1CN(C)C(=O)c2ccc(NC(=O)C3CCOCC3)cc2OC[C@@H](C)N(C(C)=O)C[C@@H]1C | 9 | / | -3 | / | 9 | / | /
5 | CO[C@@H]1CN(C)C(=O)c2ccc(NC(=O)c3nc4ccccc4s3)cc2OC[C@@H](C)N(Cc2ccncc2)C[C@@H]1C | -1 | / | -3 | / | -42 | / | /
6 | CO[C@@H]1CN(C)C(=O)c2ccc(NC(=O)C3CCOCC3)cc2OC[C@@H](C)N(C(C)=O)C[C@H]1C | 147* | / | -2 | / | 18 | / | i
7 | CO[C@H]1CN(C)C(=O)c2ccc(NC(=O)c3nc4ccccc4s3)cc2OC[C@H](C)N(Cc2ccncc2)C[C@H]1C | 173* | / | 10 | / | -39 | / | i
8 | CO[C@@H]1CN(C)C(=O)c2ccc(NC(=O)Nc3c(C)noc3C)cc2OC[C@H](C)N(C)C[C@H]1C | -12 | / | 1 | / | 16 | / | /
9 | CCCC(=O)Nc1ccc2c(c1)C(=O)N(C)C[C@@H](OC)[C@H](C)CN(S(=O)(=O)c1cn(C)cn1)[C@@H](C)CO2 | 134* | / | 0 | / | 21 | / | i
10 | C[C@@H]1CN([C@H](C)CO)S(=O)(=O)c2ccc(C3=CCCCC3)cc2O[C@@H]1CN(C)Cc1cncnc1 | 40 | / | -1 | / | -6 | / | /
11 | CS(=O)(=O)N1CC2C(c3ccc(Br)cc3)C(C1)N2CC(F)(F)F (stereo not drawn) | / | / | / | / | 17 | / | /
12 | CC(C)C#Cc1cnc2c(c1)C(=O)N([C@@H](C)CO)C[C@H](C)[C@H](CN(C)C(=O)Nc1cc(F)ccc1F)O2 | 12 | / | -3 | / | -14 | / | /
13 | COCC(=O)N1CC2(C1)[C@H](c1ccc(C3=CCCC3)cc1)[C@@H](CO)N2C(=O)COC | / | / | -6 | / | 36 | / | /
14 | COc1ccccc1Nc1nc2ccccc2[nH]1 | -20 | 5 | / | 0 | 8 | 9 | -2
15 | CCc1ccccc1Nc1nc2ccccc2[nH]1 | 0 | 2 | -3 | 4 | / | 2 | /
16 | Cc1c(Cl)cccc1N1C(=O)CC(NNC(=O)c2cccs2)C1=O (stereo not drawn) | 647* | -1 | 1 | 5 | -11 | -9 | -8
17 | CCOc1ccc(C(=O)NCC(=O)OCC(=O)c2ccc3c(c2)-c2ccccc2C3)cc1 | / | -3 | 2 | 4 | 9 | 2 | /
18 | COc1ccccc1C(=O)NCC(=O)OCC(=O)c1ccc2c(c1)-c1ccccc1C2 | 551* | 1 | / | 18 | -11 | -4 | 3
19 | COCc1cn(CC[C@@H]2CC[C@H](NC(=O)CCN3CCCCC3)[C@@H](CO)O2)nn1 | 39* | / | -8 | / | 4 | / | i
20 | CN(C)CC(=O)N[C@H]1CC[C@H](CCn2cc(CN(C)C)nn2)O[C@H]1CO | 191* | / | -2 | / | 0 | / | i
21 | CCCNC(=O)N[C@H]1CC[C@H](CCn2cc(C3CC3)nn2)O[C@@H]1CO | 145* | / | -14 | / | 7 | / | i
22 | CC(C)c1cn(CC[C@@H]2CC[C@H](N)[C@@H](CO)O2)nn1 | 193* | / | -6 | / | 4 | / | i
23 | COCc1cn(CC[C@H]2CC[C@@H](NC(=O)CCN3CCCCC3)[C@H](CO)O2)nn1 | -9 | / | 4 | / | 8 | / | /
24 | CCCNC(=O)N[C@@H]1CC[C@@H](CCn2cc(C3CC3)nn2)O[C@H]1CO | 4 | / | -6 | / | -2 | / | /
25 | CN1[C@H](CO)[C@@H]2c3ccccc3N(C(=O)C3CCOCC3)C[C@@H]21 | 5 | / | 4 | / | 5 | / | /
26 | CC(C)NC(=O)N(C)C[C@H]1OCCCC[C@@H](C)Oc2ccc(NS(=O)(=O)c3ccccc3)cc2C(=O)N([C@H](C)CO)C[C@@H]1C | 2 | / | -4 | / | 32 | / | /
27 | CCN1CCN(CCC2Oc3cc([N+](=O)[O-])ccc3NC2=O)CC1 (stereo not drawn) | -21 | -5 | 2 | -2 | -25 | 2 | 5
28 | O=C1Nc2ccc([N+](=O)[O-])cc2OC1CCN1CCN(Cc2ccc3c(c2)OCO3)CC1 (stereo not drawn) | 611* | -2 | 4 | 3 | -25 | 2 | 6
29 | O=C1Nc2ccc([N+](=O)[O-])cc2OC1CCN1CCN(Cc2ccccc2)CC1 (stereo not drawn) | / | -2 | 7 | 4 | -11 | -4 | 8
30 | COc1ccc(N2CCN(CCC3Oc4cc([N+](=O)[O-])ccc4NC3=O)CC2)cc1 (stereo not drawn) | -19 | -1 | 0 | 6 | -25 | 4 | /
31 | CO[C@H]1CN(C)C(=O)c2cc(NC(=O)NC3CCCCC3)ccc2OC[C@@H](C)N(CC2CC2)C[C@@H]1C | -4 | / | 1 | / | 10 | / | /
32 | CN(C)C(=O)C[C@H]1C[C@H]2c3cc(NC(=O)Nc4ccccc4F)ccc3O[C@H]2[C@H](CO)O1 | -1 | / | 4 | / | 1 | / | /
33 | CN(C)CC(=O)Nc1ccc2c(c1)[C@@H]1C[C@@H](CC(=O)NCc3cccc(F)c3)O[C@@H](CO)[C@@H]1O2 | 55* | / | 4 | / | 14 | / | i
34 | CN(C)C(=O)C[C@@H]1C[C@H]2c3cc(NC(=O)Nc4ccccc4F)ccc3O[C@H]2[C@H](CO)O1 | 47* | / | 1 | / | -1 | / | i
35 | CN(C)C(=O)C[C@@H]1C[C@@H]2c3cc(NC(=O)Nc4ccccc4F)ccc3O[C@@H]2[C@@H](CO)O1 | 127* | / | -1 | / | 3 | / | i
36 | C/C=C/c1ccc([C@H]2[C@H](CO)N3C(=O)CN(Cc4ccccc4)C[C@@H]23)cc1 | / | / | -1 | / | -7 | / | /
37 | CCCNC(=O)N1CC2(CN(C(=O)C3CCCC3)C2)c2c([nH]c3cc(OC)ccc23)[C@@H]1CO | / | / | -7 | / | -2 | / | /
38 | O=Cc1cn(CC(=O)NCC2CCCO2)c2ccccc12 (stereo not drawn) | -7 | -2 | / | 2 | / | 1 | /
39 | Cc1cc(SCC(=O)NCC2CCCO2)nc2ccccc12 (stereo not drawn) | 146* | -1 | 4 | 7 | 13 | 9 | -7
40 | CCN(CC)C(=O)C(=O)c1cn(CC(=O)NCC2CCCO2)c2ccccc12 (stereo not drawn) | / | 4 | 0 | 0 | 16 | -3 | /
41 | CC1CCN(C(=O)Cn2cc(C(=O)C3CC3)c3ccccc32)CC1 | -17 | -1 | / | -1 | / | 5 | -2
42 | CC1CCN(C(=O)Cn2cc(C#N)c3ccccc32)CC1 | -8 | 0 | / | -3 | 2 | 2 | /
43 | CCC(=O)c1cn(CC(=O)NCC2CCCO2)c2ccccc12 (stereo not drawn) | -13 | 8 | / | -3 | / | -5 | 7

# A second format for part of the listing above.
[25] CN1[C@H](CO)[C@@H]2c3ccccc3N(C(=O)C3CCOCC3)C[C@@H]21
  Yeast UUG start-1: 5
  SMARCA2 activ: /
  ERp5 inh: 4
  Rev-erbA mod: /
  INS-1E GSIS act: 5
  PDI inh: /
  Yeast UUG start-2: /
[28] O=C1Nc2ccc([N+](=O)[O-])cc2OC1CCN1CCN(Cc2ccc3c(c2)OCO3)CC1 (stereo not drawn)
  Yeast UUG start-1: 611*
  SMARCA2 activ: -2
  ERp5 inh: 4
  Rev-erbA mod: 3
  INS-1E GSIS act: -25
  PDI inh: 2
  Yeast UUG start-2: 6
[23] COCc1cn(CC[C@H]2CC[C@@H](NC(=O)CCN3CCCCC3)[C@H](CO)O2)nn1
  Yeast UUG start-1: -9
  SMARCA2 activ: /
  ERp5 inh: 4
  Rev-erbA mod: /
  INS-1E GSIS act: 8
  PDI inh: /
  Yeast UUG start-2: /
[32] CN(C)C(=O)C[C@H]1C[C@H]2c3cc(NC(=O)Nc4ccccc4F)ccc3O[C@H]2[C@H](CO)O1
  Yeast UUG start-1: -1
  SMARCA2 activ: /
  ERp5 inh: 4
  Rev-erbA mod: /
  INS-1E GSIS act: 1
  PDI inh: /
  Yeast UUG start-2: /
